The values below come from patent US5773239A, “Mannosidase inhibitors, process for their preparation and their use as therapeutic agents” (Mount Sinai Hospital Corporation., priority 1995, dated 1998).

The target of this assay is T1, Jack Bean α-mannosidase (Canavalia ensiformis, UniProt C0HJB3).
T1 construct: purchased Sigma
T1 sequence (C0HJB3 1-981): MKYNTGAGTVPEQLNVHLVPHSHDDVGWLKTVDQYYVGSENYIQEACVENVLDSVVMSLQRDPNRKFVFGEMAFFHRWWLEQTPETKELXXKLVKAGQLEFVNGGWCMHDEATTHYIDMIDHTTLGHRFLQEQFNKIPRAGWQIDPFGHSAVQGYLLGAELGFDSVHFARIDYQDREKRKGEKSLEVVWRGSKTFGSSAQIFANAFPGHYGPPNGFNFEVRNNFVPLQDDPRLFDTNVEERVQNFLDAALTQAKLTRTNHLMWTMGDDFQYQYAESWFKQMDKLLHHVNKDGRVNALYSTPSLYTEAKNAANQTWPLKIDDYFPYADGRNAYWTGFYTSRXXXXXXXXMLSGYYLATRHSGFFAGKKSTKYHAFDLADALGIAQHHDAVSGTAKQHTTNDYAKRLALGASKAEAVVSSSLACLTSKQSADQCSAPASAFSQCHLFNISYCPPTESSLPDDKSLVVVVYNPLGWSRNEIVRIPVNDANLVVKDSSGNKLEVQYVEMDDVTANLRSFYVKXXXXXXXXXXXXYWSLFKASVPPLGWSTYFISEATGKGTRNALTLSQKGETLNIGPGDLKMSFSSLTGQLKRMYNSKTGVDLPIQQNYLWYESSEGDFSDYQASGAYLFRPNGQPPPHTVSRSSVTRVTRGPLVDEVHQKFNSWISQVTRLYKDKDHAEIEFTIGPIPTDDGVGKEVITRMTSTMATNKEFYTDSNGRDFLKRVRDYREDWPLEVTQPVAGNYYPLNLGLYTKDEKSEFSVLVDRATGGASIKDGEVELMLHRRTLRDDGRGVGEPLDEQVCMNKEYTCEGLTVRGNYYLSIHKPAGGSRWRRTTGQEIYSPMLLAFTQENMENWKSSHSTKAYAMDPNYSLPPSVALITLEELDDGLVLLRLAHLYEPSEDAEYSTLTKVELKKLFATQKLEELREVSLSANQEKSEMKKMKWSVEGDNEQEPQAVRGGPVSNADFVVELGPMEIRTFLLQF
In words: Inhibition of Jack Bean α-mannosidase. It counts as biochemical. Conditions: p-nitrophenyl α-D-mannopyranoside, pH 5.0, 20 min 37° C.; read-out: IC50 for inhibition of J.B. α-mannosidase. On the procedure:
SW and analogues were serially diluted into a volume of 75 μl in 96 well Elisa plates followed by the addition of 37.5 μl of 100 mM sodium acetate pH 5.0 and 37.5 μl of 10 mM p-nitrophenyl α-D-mannospyranoside. Jack Bean α-mannosidase (Sigma, 38 U/ml) was diluted 1/800, 10 μl was added to each well and the plates were incubated for 20 min at 37° C. The reaction was stopped by the addition of 150 μl of 0.5M sodium carbonate and formation of p-nitrophenol was measured with a plate set at 405 nm. The effects of SW and analogues on cellular acid α-mannosidases (ie. lysosomal enzyme) were measured using the same assay where Jack Bean α-mannosidase was replaced by 10 μl MDAY-D2 tumor cell lysate (10 μg/μl of protein) prepared in 0.9% NaCl, 50 mM Tris pH 7.0, 0.5% Triton X-100 and 1.0 mM diethyl p-nitrophenyl phosphate.

`O[C@H]1[C@H]2[C@H](O)CCCN2C[C@H]1O` [SW, Swainsonine, reference compound]: the IC50 is 400 nM.
